Reference: patent publication US20260167623A1 (NIKANG THERAPEUTICS, INC., priority 2022, published 2026)

Target: CDK2 (Homo sapiens, UniProt P24941)
Experiment: Inhibition of CDK2: phospho-Rb (S807/811) HTRF measurement in OVCAR3 cells, 24 h
Settings: read-out: pRB_OVCAR3_24h, 24 h compound treatment
Protocol: Inhibition of CDK2: Phospho-R^b Measurement in Cells
Phosphorylation of RB protein at S807/811 were measured using HTRF phospho-RB cellular kits (Cat #64RBS807PEG) from Cisbio.
On Day 1, OVCAR3 (CDK2 dependent cell line) cells were seeded into 96-well tissue-culture treated plates at 20,000 cells/well in 200 μL and incubated overnight at 37° C. in CO2 atmosphere. On Day 2, the cells were treated with test compounds at concentrations from 0.3 to 10,000 nM using HP D300 digital dispenser. Twenty-four hours after compound treatment, cell culture media is removed by flicking the plate and tapping the plate against clean paper towel. 30 μL 1× lysis buffer was supplemented from the kit was added to each well and the plate was incubated at room temperature on shaker for 30 min. After homogenization by pipetting up and down, 8 μL cell lysate from 96-well cell culture plate was transferred to 384-well small volume white detection plate. 2 μL premixed detection solution was added and the plate was covered with sealer. […] Detection plates were incubated for 4 h at room temperature and read on ClarioStar (BMG Labtech) in TR-FRET mode ([…]). […] Half maximal inhibition concentration (IC50) values were calculated with a four-parameter logistic fit using GraphPad Prism (version 8; La Jolla, CA). […]

IC50: 500 to 2500 nM
Structure (SMILES): Cn1nc(N2CCC(=O)NC2=O)c2ccc(C3CCN(Cc4cccc(S(=O)(=O)N5CCC(Nc6ncc(Oc7ccccc7)cn6)CC5)c4)CC3)cc21
